# Data taken from PMC9154761, “Development of Praziquantel sulphonamide derivatives as antischistosomal drugs” (Journal of Enzyme Inhibition and Medicinal Chemistry, 2022).
# Protein sequences, listed by entry. Tags and fused reporters are not part of them. Lines headed by an entry give the natural chain unless they say otherwise; changes in a name come on top.
# UniProt P00915: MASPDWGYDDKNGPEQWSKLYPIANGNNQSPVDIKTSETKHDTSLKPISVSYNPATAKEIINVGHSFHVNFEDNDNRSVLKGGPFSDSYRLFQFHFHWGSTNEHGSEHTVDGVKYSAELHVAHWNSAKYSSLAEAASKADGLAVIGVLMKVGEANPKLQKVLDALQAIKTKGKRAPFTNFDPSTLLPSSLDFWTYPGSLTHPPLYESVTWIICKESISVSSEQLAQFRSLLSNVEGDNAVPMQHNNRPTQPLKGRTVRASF
# Columns and labels:
# hCA I = molecular target: T1, hCA I (Homo sapiens, UniProt P00915); assay: stopped flow CO2 hydrase assay, hCA I; format: biochemical; conditions: mean from three different assays
# T1 construct: made in house
# hCA II = molecular target: T2, hCA II (Homo sapiens, UniProt P00918); assay: stopped flow CO2 hydrase assay, hCA II; format: biochemical; conditions: mean from three different assays, read-out: Ki hCAII
# T2 construct: made in house
Substance,Ki (hCA I),Ki (hCA II)
"4–(3-(4–(4-Oxo-1,3,4,6,7,11b-hexahydro-2H-pyrazino[2,1-a]isoquinoline-2-carbonyl) phenyl)ureido)benzenesulfonamide [Compound 31c]",81.5 ± 5.5 nM,13.7 ± 1.2 nM
"3–(3-(3–(4-Oxo-1,3,4,6,7,11b-hexahydro-2H-pyrazino[2,1-a]isoquinoline-2-carbonyl) phenyl)ureido)benzenesulfonamide [Compound 31b]",95.2 ± 10.3 nM,41.8 ± 4.4 nM
"3–(3-(4–(4-Oxo-1,3,4,6,7,11b-hexahydro-2H-pyrazino[2,1-a]isoquinoline-2-carbonyl) phenyl)ureido)benzenesulfonamide [Compound 31d]",465 ± 30.1 nM,122 ± 12.1 nM
"4–(3-(3–(4-Oxo-1,3,4,6,7,11b-hexahydro-2H-pyrazino[2,1-a]isoquinoline-2-carbonyl) phenyl)ureido)benzenesulfonamide [Compound 31a]",36.6 ± 2.7 nM,6.7 ± 0.6 nM
